Data published in ChEMBL document CHEMBL4265918, “Design, synthesis, and biological evaluations of phenylpropiolic acid derivatives as novel GPR40 agonists” (Eur J Med Chem, 2018).
The source made the active and inactive calls. The calls are words filed in the database; no cut-off is given here.

The chains behind the UniProt entries cited, without tags or fusion partners.
UniProt O14842, whole entry: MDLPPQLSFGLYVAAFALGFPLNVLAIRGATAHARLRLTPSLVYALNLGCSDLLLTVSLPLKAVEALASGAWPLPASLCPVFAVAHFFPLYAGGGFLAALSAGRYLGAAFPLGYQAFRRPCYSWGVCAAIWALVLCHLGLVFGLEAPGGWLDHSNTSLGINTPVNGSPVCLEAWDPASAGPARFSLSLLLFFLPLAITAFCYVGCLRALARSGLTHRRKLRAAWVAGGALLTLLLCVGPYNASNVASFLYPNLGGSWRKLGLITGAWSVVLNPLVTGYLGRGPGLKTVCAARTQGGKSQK
UniProt Q76JU9, whole entry: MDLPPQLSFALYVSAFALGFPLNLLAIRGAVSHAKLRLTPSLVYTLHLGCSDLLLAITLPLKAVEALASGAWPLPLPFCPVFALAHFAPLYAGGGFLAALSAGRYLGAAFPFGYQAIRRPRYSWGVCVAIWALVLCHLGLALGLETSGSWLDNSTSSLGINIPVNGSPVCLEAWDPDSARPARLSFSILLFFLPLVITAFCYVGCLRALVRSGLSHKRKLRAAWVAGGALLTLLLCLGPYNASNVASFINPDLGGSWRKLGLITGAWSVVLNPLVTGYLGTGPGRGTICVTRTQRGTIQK

Assays:
Format in all cases: functional, cell-based
[1] = biological target: T1, Free fatty acid receptor 1 (Homo sapiens, UniProt O14842); assay: Agonist activity at recombinant human GPR40 expressed in HEK293 cells assessed as increase in intracellular calcium flux measured for 120 secs in presence of GPR40 antagonist […] by calcium-5 dye based assay
Outline: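 In HEK293-GPR40 cells loaded with Calcium-5 dye, GPR40 antagonist GW-1100 (10 µM) was added for 15 min before agonist stimulation. Intracellular calcium flux was read by fluorescence. Mean ± SEM, unpaired two-tailed t test.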

[2] = biological target: T1, Free fatty acid receptor 1; assay: Agonist activity at recombinant human GPR40 expressed in HEK293 cells assessed as phosphorylation of ERK1/2 at 10 after 20 mins by Western blot analysis
Outline: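 HEK293-GPR40 cells, or HEK293 with empty vector, were serum-starved 2 h, then treated with compounds at 10 µM, 37 °C, 20 min; GW-1100 antagonist where indicated. Lysates in RIPA buffer with protease/phosphatase inhibitors; 30 µg protein run on 10% SDS-PAGE, blotted and probed for phospho-ERK1/2 (Thr202/Tyr204), total ERK1/2 and GAPDH. EGF 50 ng/mL as positive control.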

[3] = biological target: Free fatty acid receptor 1 (Mus musculus) (UniProt Q76JU9); assay: Agonist activity at GPR40 in mouse MIN6 cells assessed as increase in glucose-stimulated insulin secretion at 10 uM measured after 2 hrs by ELISA relative to control
Outline: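 MIN6 mouse insulinoma cells, grown in high-glucose DMEM with 15% FBS and 72 µM β-mercaptoethanol, plated 50,000/well and cultured 48 h. Cells were starved 30 min in glucose-free DMEM/15% FBS, then given glucose-free DMEM with 2.5 or 25 mM glucose plus compound for 2 h. Secreted insulin in supernatant was measured by mouse insulin ELISA. GW-1100 used at 10 µM. Mean ± SEM, n=3.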

Cc1cc(OCCCS(C)(=O)=O)cc(C)c1-c1cccc(COc2ccc3c(c2)OC[C@H]3CC(=O)O)c1
Activity [1]: inactive
Activity [2]: Active
fold change (FC) [3]: 2
